Experimental data reported in patent publication US8877738B2, “Antipathogenic peptides” (priority 2009, dated 2014).
Values after ≈ are worked out from the molar mass of the structure shown.

What was measured:
[1] = test system: HPV-16 PsV; conditions: HPV-16-SEAP PsV preincubated with peptide, 293TT cells, 72 h post-infection
[2] = test system: HCMV VR1814; conditions: HUVECs, M.O.I. 1, 6 days p.i.
Experimental: (§1) FIGS. 4A and 4B. […] HUVECs were infected with the endotheliotropic and clinical HCMV isolate VR1814 (FIG. 4B) at a M.O.I of 1. The extent of AD169 or AU replication was then assessed by titrating the infectivity of supernatants of HELF suspensions by standard plaque assay. The extent of VR1814 replication was measured by titrating the infectivity of supernatants of cell suspensions by the indirect immunoperoxidase staining procedure on HUVECs using a monoclonal antibody (mAb) reactive to the HCMV IE proteins. Plaques were microscopically counted, and the mean plaque counts for each peptide concentration were expressed as a percentage of the mean count of the controls. The number of plaques was plotted as a function of drug concentration, and the concentration producing a 50% reduction in plaque formation (IC50) was determined.
The cells and supernatants from the antiviral assay were then harvested and disrupted by sonication.

[3] = test system: HCMV laboratory strain AD169; conditions: HELFs, M.O.I. 1, treated 1 h before and during infection, 6 days p.i.
Experimental: as §1
(§2) After 1 hour, they were infected with HCMV AD169 or HCMV AL1 at a M.O.I. of 1 PFU/cell. […] The cells and supernatants from the antiviral assay were then harvested and disrupted by sonication. The extent of virus replication was assessed by titrating the infectivity of supernatants of cell suspensions by standard plaque assay on HELFs.

[4] = test system: HCMV clinical isolate AL1; conditions: HELFs, M.O.I. 1, 6 days p.i.
Experimental: as §1, §2

## CC[C@H](C)[C@H](NC(=O)[C@H](CCCNC(=N)N)NC(=O)[C@@H](NC(=O)[C@H](CCCNC(=N)N)NC(=O)[C@H](CC(C)C)NC(=O)[C@H](CO)NC(=O)[C@H](C)N)C(C)C)C(=O)N[C@@H](CCCCN)C(=O)N[C@@H](CCCCN)C(=O)NCCCC[C@H](NC(=O)[C@H](CCCCN)NC(=O)[C@H](CCCCN)NC(=O)[C@@H](NC(=O)[C@H](CCCNC(=N)N)NC(=O)[C@@H](NC(=O)[C@H](CCCNC(=N)N)NC(=O)[C@H](CC(C)C)NC(=O)[C@H](CO)NC(=O)[C@H](C)N)C(C)C)[C@@H](C)CC)C(=O)NCCCC[C@H](NC(=O)[C@H](CCCCNC(=O)[C@H](CCCCN)NC(=O)[C@H](CCCCN)NC(=O)[C@@H](NC(=O)[C@H](CCCNC(=N)N)NC(=O)[C@@H](NC(=O)[C@H](CCCNC(=N)N)NC(=O)[C@H](CC(C)C)NC(=O)[C@H](CO)NC(=O)[C@H](C)N)C(C)C)[C@@H](C)CC)NC(=O)[C@H](CCCCN)NC(=O)[C@H](CCCCN)NC(=O)[C@@H](NC(=O)[C@H](CCCNC(=N)N)NC(=O)[C@@H](NC(=O)[C@H](CCCNC(=N)N)NC(=O)[C@H](CC(C)C)NC(=O)[C@H](CO)NC(=O)[C@H](C)N)C(C)C)[C@@H](C)CC)C(=O)NCCC(N)=O [SB105-A10, (ASLRVRIKK)4-Lys2-Lys-β-Ala]
[1]
  IC50 against HPV-16 PsV: 2.8 µg/mL (≈ 0.598 µM)
[2]
  IC50, endotheliotropic HCMV VR1814 replication: 1.3 µg/mL (≈ 0.278 µM)
[3]
  50% inhibition of HCMV AD169 replication (IC50): 1.36 µg/mL
[4]
  IC50, HCMV clinical isolate AL1 replication: 1.2 µg/mL (≈ 0.256 µM)
